Results from patent US6806276B2, “2-oxoquinoline compounds and pharmaceutical uses thereof” (Japan Tobacco Inc., priority 1999, dated 2004).

Protein sequences, listed by entry. Tags and fused reporters are not part of them.
UniProt P34972, whole entry: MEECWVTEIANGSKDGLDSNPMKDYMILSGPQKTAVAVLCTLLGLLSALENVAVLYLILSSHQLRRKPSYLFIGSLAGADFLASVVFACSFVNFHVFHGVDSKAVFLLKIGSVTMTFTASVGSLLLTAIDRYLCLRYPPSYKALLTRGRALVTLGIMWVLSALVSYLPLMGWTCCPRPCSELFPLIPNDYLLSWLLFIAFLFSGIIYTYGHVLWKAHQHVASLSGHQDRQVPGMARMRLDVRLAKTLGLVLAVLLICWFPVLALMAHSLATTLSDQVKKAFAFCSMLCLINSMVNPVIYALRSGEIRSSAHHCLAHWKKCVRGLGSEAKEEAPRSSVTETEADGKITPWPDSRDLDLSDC

Molecular target: T1, human peripheral type cannabinoid receptor (hCB2) (Homo sapiens, UniProt P34972)
T1 construct: expressed in transfected cells; host or cells: CHO cells
Experiment: Binding assay (in vitro), [3H]Win55212-2 displacement, membrane fractions of human CB2-CHO
Details: hCB2 expressed in CHO cells, [3H]Win55212-2 2 nM, 30° C. 90 minutes; read-out: Ki value Peripheral type receptor (S)

Ki: 20 pM
SMILES: CCOc1c(OC)ccc2cc(C(=O)NCCc3ccncc3)c(=O)[nH]c12 [Example 3-6, 8-ethoxy-7-methoxy-2-oxo-1,2-dihydroquinoline-3-carboxylic acid (2-pyridine-4-ylethyl)amide]
